# Results as given in US20240002326A1, “COMPOUNDS AND USE THEREOF IN METHODS OF TREATMENT” (The University of Queensland, priority 2016, published 2024).
# Sequences of proteins named here, by UniProt entry; tags and fusion partners are left off. Residues count along the entry.
# UniProt P05979, 25-600 limits assumed: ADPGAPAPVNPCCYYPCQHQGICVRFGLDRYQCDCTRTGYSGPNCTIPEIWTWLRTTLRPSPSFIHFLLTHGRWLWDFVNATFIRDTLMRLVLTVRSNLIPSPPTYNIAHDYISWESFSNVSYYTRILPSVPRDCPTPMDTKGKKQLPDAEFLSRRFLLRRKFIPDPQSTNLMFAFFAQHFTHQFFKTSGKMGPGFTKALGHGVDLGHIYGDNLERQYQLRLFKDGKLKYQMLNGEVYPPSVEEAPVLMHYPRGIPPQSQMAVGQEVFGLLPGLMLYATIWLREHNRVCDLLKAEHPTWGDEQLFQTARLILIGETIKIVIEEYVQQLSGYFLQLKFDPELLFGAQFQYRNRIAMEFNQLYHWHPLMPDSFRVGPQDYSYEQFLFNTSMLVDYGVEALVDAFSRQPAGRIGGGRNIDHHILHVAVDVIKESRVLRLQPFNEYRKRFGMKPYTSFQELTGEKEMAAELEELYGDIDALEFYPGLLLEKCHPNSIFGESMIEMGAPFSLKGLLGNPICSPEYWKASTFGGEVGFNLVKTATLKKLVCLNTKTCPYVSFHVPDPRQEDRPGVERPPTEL
# UniProt P35713, whole entry: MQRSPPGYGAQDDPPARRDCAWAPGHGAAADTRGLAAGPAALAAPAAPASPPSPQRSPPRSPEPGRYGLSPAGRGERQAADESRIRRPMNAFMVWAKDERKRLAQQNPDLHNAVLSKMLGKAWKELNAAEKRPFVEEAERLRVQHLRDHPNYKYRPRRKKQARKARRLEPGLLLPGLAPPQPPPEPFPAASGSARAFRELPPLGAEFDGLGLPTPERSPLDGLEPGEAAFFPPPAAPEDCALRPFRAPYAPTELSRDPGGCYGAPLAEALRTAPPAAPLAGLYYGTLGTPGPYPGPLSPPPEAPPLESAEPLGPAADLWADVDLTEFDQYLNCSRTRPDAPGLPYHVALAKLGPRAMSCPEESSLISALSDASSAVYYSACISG
# UniProt P48436, whole entry: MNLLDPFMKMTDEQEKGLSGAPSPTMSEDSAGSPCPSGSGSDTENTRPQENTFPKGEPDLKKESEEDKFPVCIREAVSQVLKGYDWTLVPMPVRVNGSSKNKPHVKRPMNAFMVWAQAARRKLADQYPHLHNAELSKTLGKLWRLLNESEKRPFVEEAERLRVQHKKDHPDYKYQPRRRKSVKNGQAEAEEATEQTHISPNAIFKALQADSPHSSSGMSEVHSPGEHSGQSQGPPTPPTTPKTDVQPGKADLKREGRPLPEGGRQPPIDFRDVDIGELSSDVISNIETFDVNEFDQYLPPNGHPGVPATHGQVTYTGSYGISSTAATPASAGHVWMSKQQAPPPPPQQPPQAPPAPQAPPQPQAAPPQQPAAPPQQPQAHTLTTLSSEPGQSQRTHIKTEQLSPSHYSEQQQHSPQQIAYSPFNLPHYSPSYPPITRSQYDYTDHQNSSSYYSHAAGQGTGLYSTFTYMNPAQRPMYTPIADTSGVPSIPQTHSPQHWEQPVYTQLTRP
# UniProt Q9BT81, whole entry: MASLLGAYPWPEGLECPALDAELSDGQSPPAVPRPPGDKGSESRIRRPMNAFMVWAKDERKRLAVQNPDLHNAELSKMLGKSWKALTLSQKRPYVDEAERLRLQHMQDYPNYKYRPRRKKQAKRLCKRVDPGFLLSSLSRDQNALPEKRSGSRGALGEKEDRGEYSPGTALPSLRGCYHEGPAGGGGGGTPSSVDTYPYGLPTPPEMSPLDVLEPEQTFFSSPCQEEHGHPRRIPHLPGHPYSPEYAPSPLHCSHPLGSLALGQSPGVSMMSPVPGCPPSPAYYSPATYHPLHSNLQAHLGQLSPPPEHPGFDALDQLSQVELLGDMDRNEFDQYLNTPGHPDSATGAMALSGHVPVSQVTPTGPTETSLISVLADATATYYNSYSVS
# UniProt Q9H6I2, whole entry: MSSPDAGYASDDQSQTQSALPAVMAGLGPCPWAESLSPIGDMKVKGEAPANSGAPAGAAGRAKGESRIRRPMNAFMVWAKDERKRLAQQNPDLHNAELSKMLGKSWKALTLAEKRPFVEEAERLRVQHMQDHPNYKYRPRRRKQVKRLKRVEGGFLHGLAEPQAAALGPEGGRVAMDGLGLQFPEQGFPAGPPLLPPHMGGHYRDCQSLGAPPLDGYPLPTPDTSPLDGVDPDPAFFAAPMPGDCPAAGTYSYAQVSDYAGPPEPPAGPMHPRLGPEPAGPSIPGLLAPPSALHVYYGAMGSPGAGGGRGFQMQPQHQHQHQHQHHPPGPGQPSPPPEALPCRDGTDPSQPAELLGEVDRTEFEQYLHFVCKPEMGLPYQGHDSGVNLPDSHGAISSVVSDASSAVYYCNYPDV
# Columns and labels:
# [1] = biological target: ovine COX1 (Ovis aries (Sheep), UniProt P05979); test: COX1 enzymatic assay; conditions: up to a concentration of 200 μM
# [2] = biological target: SOX18 (Homo sapiens (Human), UniProt P35713); test: SOX18 single molecule tracking in Hela cells; type: cell-based
# From the text: (§1) FIG. 24B depicts the experimental workflow, which involves bi-dimensional tracking of molecule trajectory and analysis using MATLAB, as outlined in Chen et al. (Cell 156, 1274-1285; 2014). We note that the immobile DNA bound fraction (%, shown in pie graphs) is of two types, specific and non-specific, depending on the dwelling time in one same DNA position; if of a short time (less than 1 second average) this is considered to be non-specific binding (i.e., transient binding to random DNA sites), and if of a long time (greater than 5-6 seconds average) this is considered to be specific binding (i.e., longer binding to target DNA sites with transcriptional effect). The dwell times of immobile DNA bound fractions (shown as bar graphs) is also of two types, specific and non-specific: The length of time in seconds that SOX18 molecules bind to DNA non-specifically (on average less than 1 second) or specifically (on average greater than 5-6 seconds). Single molecule tracking is performed after transfection of Hela cells with a SOX18-Halotag reporter construct. This expression vector enables us to detect single molecule of SOX18 protein upon addition of a ligand which becomes fluorescent after enzymatic processing by the Halotag system. Real time imaging is performed using a modified version of TIRF microscopy (HiLo) using a ZEISS ELYRA super-resolution microscope.
# [3] = system: SOX18 dominant negative mutant Ra^op; test: Single molecule tracking of SOX18 dominant negative mutant Ra^op; type: cell-based; conditions: concentration-dependent
# From the text: as §1
# [4] = biological target: SOX9-SOX9 (Homo sapiens (Human), UniProt P48436); test: ALPHA-Screen SOX9 homodimerization; conditions: up to 200 μM
# [5] = biological target: SOX7-RBPJ (Homo sapiens (Human), UniProt Q9BT81); test: ALPHA-Screen SOX7-RBPJ interaction; type: binding; conditions: 50 uM Sm4
# From the text: (§2) The genetically encoded tags used here are enhanced GFP (GFP), mCherry (Cherry) and cMyc (myc). The proteins were cloned into the following cell free expression Gateway destination vectors respectively: N-terminal GFP tagged (pCellFree_G03), N-terminal Cherry-cMyc (pCellFree_G07) and C-terminal Cherry-cMyc tagged (pCellFree_G08) (Gagoski et al. 2015). The Open Reading Frames (ORFs) corresponding to the human SOX7 (BC071947), SOX17, RBPJ (BC020780) and MEF2C (BC026341) were sourced from the Human ORFeome collection version 1.1 and 5.1 or the Human Orfeome collaboration OCAA collection (Open Biosystems) as previously described and cloned at the ARVEC facility, UQ Diamantina Institute. […]
# (§3) The ALPHA-Screen Assay was performed as previously described (Sierecki et al. 2014), using the cMyc detection kit and Proxiplate-384 Plus plates (PerkinElmer). A serial dilution of each sample was measured. […] The ALPHA-Screen signal was obtained on an Envision Multilabel Plate Reader (PerkinElmer), using the manufacturer's recommended settings (excitation: 680/30 nm for 0.18 s, emission: 570/100 nm after 37 ms). […] The Binding Index was calculated as: BI=[(I−I_neg)/(I_ref−I_neg)]×100
# (§4) For PPI disruption assay, protein pairs expressed in LTE were incubated for 1 h with 100 μM Sm4 or DMSO alone (0.7% DMSO final). 100 μM Sm4 or DMSO was also added to buffer B. PPI disruption was calculated as: (1−I_Sm4/I_DMSO)×100.
# [6] = biological target: SOX17-OCT4 (Homo sapiens (Human), UniProt Q9H6I2); test: ALPHA-Screen SOX17-OCT4 interaction; type: binding; conditions: 50 uM Sm4
# From the text: as §2, §3, §4
# [7] = system: GABAA, Flunitrazepam; test: Off-target radioligand binding, GABAA Flunitrazepam; conditions: Rat
smiles,measurement,setting,value
O=C(O)c1c(O)cccc1CCc1ccc2ccccc2c1,COX-1 inhibitory activity,[1],None of the SOX18 inhibitor display any COX-1 or COX-2 inhibitory activity
same,SOX18 dwell time,[2],increases the dwell time of the specifically bound SOX18 fraction
same,SOX18 chromatin bound fraction,[2]; concentration-dependent,increases SOX18 specific bound fraction
same,Ra^op chromatin bound fraction,[3],decreases Ra^op specific bound fraction
same,SOX9 homodimerization,[4],unperturbed
same,SOX7-RBPJ interaction disruption,[5],at least partially disrupted
same,SOX17-OCT4 interaction,[6],affected
same,Inhibition at 10 μM (%),[7],−6%
